Tests used:
[1] = tested on: mikrovaskulären Endothelzellen; assay: Cell proliferation assay in microvascular endothelial cells; assay type: cell-based; conditions: Figure 5
Source text: Figur 5 zeigt, dass ähnliche biologische Aktivitäten in einem Zellproliferationsassay in mikrovaskulären Endothelzellen beobachtet werden. In diesem Fall inhibieren MIF und MIF-Pep-161 das Zellwachstum, was mit der Induktion des Zellzyklusinhibitors p27 (siehe Figur 4) korrespondiert; die Serinmutante von MIF-Pep-161 zeigt keinen Effekt.

THP-1-Zellen = assay: Glucocorticoid overriding test in THP-1 monocyte line (TNF ELISA); assay type: cell-based, human; conditions: THP-1 cells, Dexamethason 10^-6 M, 1 µg/ml LPS, 4 h, TNF by ELISA; Figure 3
Source text: Das MIF-Pep-161-Peptid weist MIF-artige immunologische Aktivität im Glucocorticoid-Overriding-Test auf (siehe Beispiel 2). Der originär beschriebene in der Forschung eingesetzte Glucocorticoid-Overriding-Test in primären Blutmonozyten aus Spenderblut ist jedoch für pharmakologische Screeningtests ungeeignet, da der Test eine Spenderabhängige Variabilität aufweist und primäre Blutmonozyten nicht in den für Screeningansätze benötigten großen Mengen zur Verfügung stehen. Es wurde daher untersucht, ob die Glucocorticoid-Overriding-Aktivität von MIF-Pep-161-Peptid auch in einer für Screeningzwecke geeigneten Monozytenlinie gemessen werden kann. Hierzu wurde der Glucocorticoid-Overriding-Test zunächst in der humanen THP-1-Zelllinie etabliert. Hierzu mussten einige der Testparameter wie die Inkubationszeit und die Dexamethasonkonzentration neu adaptiert werden. Der optimierte Test in THP-1-Zellen ist im Folgenden beschrieben: Es werden THP-1-Zellen (human acute monocytic leukemia cell line) verwendet. Die Zellen werden in RPMI 1640+ 10% FCS; 2 mM L-Glutamine; 100 U/ml Pen/Strep kultiviert. Alle Lösungen zuzugebender Stoffe werden 100-fach konzentriert angesetzt, so dass im Assay je 5 µl pro well zugegeben werden können. Dexamethason wird in EtOH gelöst, dann in Medium weiterverdünnt. LPS wird vor der Verdünnung für 5 min ultrabeschallt. […]

p27-Kip1 = assay: Modulation of cellular p27-Kip1 levels in NIH 3T3 fibroblasts; assay type: cell-based; conditions: peptides 3.3 µM (Figure 4), oxidised and reduced form comparable
Source text: MIF reguliert über die Bindung an JAB1 zentrale Zellzyklusvorgänge (Kleemann et al., Nature 408, 2000). Es wurde überprüft, ob das MIF-Pep-161-Peptid ebenfalls solch eine zellregulatorische Aktivität aufweist. Hierzu wurde untersucht, ob MIF-Pep-161 die zellulären Konzentrationen des Zellzyklusinhibitors p27-Kip1 modulieren kann. NIH 3T3-Fibroblasten wurden wie in Kleemann et al. (Nature 408, 2000) beschrieben kultiviert und induziert und mit MIF bzw. den MIFAR-Peptiden behandelt.

Jab1 = assay: Competition of MIF-Jab1 binding in TNT reticulocyte lysate system (anti-MIF IP / anti-biotin Western blot); conditions: Figure 1; result in words
Source text: Es wurden in vitro-Studien in einem TNT-Retikulozytenlysatsystem durchgeführt. Die Figur 1 stellt einen Anti-Biotin-S-HRP Westernblot dar. […] Gleiches gilt für das 16 Aminosäuren lange MIF-Derivat mit den Aminosäuren 50-65 von Wildtyp-MIF, wobei die Aminosäuren Cys57 und Cys60 durch Ser57 und Ser60 ausgetauscht sind.

[2] = Solubility in physiological buffers (PBS, TBS) and H2O; assay type: physicochemical; conditions: aqueous buffer; physiological buffers such as PBS or TBS, also H2O; read-out: löslich (Konzentration)
Procedure: Im Zusammenhang mit der vorliegenden Erfindung wird unter löslich verstanden, dass das Derivat in physiologischen Puffern wie PBS oder TBS sowie auch in H2O löslich ist. Die Derivate sind auch bei weit höheren Konzentrationen (MIF 50-65 zum Beispiel bei 1 mM vs. ≤ 8 µm bei C60S MIF) löslich.

[3] = HED oxidoreductase test of immobilised MIF / MIFARs; assay type: biochemical
Source text: MIF-Pep-161 oder humanes rekombinantes MIF oder Mono-MIF-Rekombein-1 wurde biotinyliert und an einen mit Streptavidin funktionalisierten Siliciumwafer gebunden und die MIF-Immobilisierung durch grenzflächentechnische Analytik wie Ellipsometrie und Schichtdickenmessung bestätigt. So immobilisiertes MIF wurde dann auf seine Oxidoreduktaseaktivität untersucht. Dazu wurde ein definiertes Waferstück in ein Reaktionsgefäß eingebracht und dort mit der Reaktionslösung des HED-Oxidoreduktasetests in Kontakt gebracht (siehe z. B. Kleemann et al., 1998a). Nach 10 Minuten wurde diese Lösung wieder abpipettiert und die Menge an umgesetzten HEDs im Fotometer bestimmt. Immobilisiertes MIF zeigte 64+/-7 % Aktivität im Vergleich zur Aktivität von Wildtyp-MIF im Standardassay in Lösung. Wurde MIF kovalent an einen aminofunktionalisierten Wafer gebunden, wurden noch ca. 39 % Aktivität gemessen. Die Immobilisierung von MIF an CNBr-aktivierte Sepharose als Träger (nach Muronetz et al., 1988) war ebenfalls erfolgreich. So hatte immobilisiertes MIF 71+/-11 % Aktivität im Vergleich zur Kontrollmessung in Lösung.

[4] = Oxidation study of the peptide (air oxidation, HPLC and LC-MS analysis); assay type: physicochemical; conditions: 100 µM peptide in 10 mM Tris-HCl, pH 8,0
Source text: (§1) Oxidationsstudien mit anschließender HPLC-Analytik oder Untersuchungen durch Circulardichroismus-Spektropolarimetrie zeigten dann auch, dass MIF-Pep-161 eine starke Tendenz zur Ausbildung einer intramolekularen Disulfidbrücke hat. Dies zeigte sich durch die für Disulfidbrücken charakteristische Erhöhung des φ-Wertes von oxidiertem MIF-Pep-161 im Nah-UV-GD bei ∼275 nm sowie durch den ebenfalls charakteristischen Anstieg der β-Turn-Konformation (negativer Peak bei -225 nm im Fern-UV-CD). Dieser geht auf die durch das Disulfid induzierte Loopstabilisierung zurück, welche die entsprechende β-Turnstruktur stabilisiert. Parallel dazu wurde eine entsprechend verringerte random coil-Struktur bei oxidiertem MIF-Pep-161 gegenüber reduzietem MIF-Pep-161 beobachtet. Diese Daten zeigen eindeutig, dass MIF-Pep-161 trotz der geringen Molekülgröße eine Sekundärstruktur ausbildet und eine reaktive Dithiolstruktur enthält. Bei den durch CD analysierten Oxidationsstudien von MIF-Pep-161 wurde experimentell wie folgt vorgegangen: MIF-Pep-161 wurde entweder mit DTT reduziert oder durch Luftoxidation oxidiert (100 µM Peptid in 10 mM Tris-HCl, pH 8,0) beziehungsweise reduziertes MIF-Pep-161 wieder reoxidiert. Bei der Oxidation haben die Cystein-Thiole Gelegenheit, inter- oder intramolekulare Disulfide auszubilden. […]

Macrophagen = assay: Glucocorticoid overriding assay (macrophage activation test, per Calandra et al. 1995); assay type: cell-based; conditions: 0,6 µM or 6,6 µM peptide; 1 µg/ml LPS, 10^-9 M Dex
Source text: as §1

Insulin = Insulin reduction assay (catalytic redox activity); assay type: biochemical; conditions: peptide at 40 µM; result in words
Source text: as §1

CC[C@H](C)[C@H](NC(=O)[C@H](CO)NC(=O)[C@H](Cc1c[nH]cn1)NC(=O)[C@H](CC(C)C)NC(=O)[C@H](CO)NC(=O)[C@H](CS)NC(=O)[C@H](CC(C)C)NC(=O)[C@H](C)NC(=O)[C@H](CS)NC(=O)[C@@H]1CCCN1C(=O)[C@H](CCC(=O)O)NC(=O)[C@H](CO)NC(=O)[C@H](CO)NC(=O)CNC(=O)CNC(=O)[C@@H](N)Cc1ccccc1)C(=O)O [MIF-Pep-161]
Effekt auf das Zellwachstum [1]: inhibieren
Glucocorticoid-Overriding-Aktivität (THP-1-Zellen): gute Aktivität
p27-modulierende Zellaktivität (p27-Kip1): zu MIF vergleichbare p27-modulierende Zellaktivität
Kompetition mit Wildtyp-MIF für die Bindung mit Biotin markiertem Jab1 (Jab1): kompetiert in konzentrationsabhängiger Weise
solubility [2]: ≥ 1000 µM
Aktivität i.V. zu MIF ([3]; compared with MIF): 12 +/- 3%
Aktivität i.V. zum Peptid / Rekombein in Lösung ([3]; compared with the same substance in solution): 33 +/- 9%
Anteil intramolekularer Disulfide [4]: > 90%
MIF-Bioaktivität (Glucocorticoid-Overriding) (Macrophagen): maximale MIF-Bioaktivität
katalytische Aktivität (Insulin): signifikante kataytische Aktivität
